Laboratory results from publication PMC11541501, “Development of a Candidate ^11C‑Labeled Selective Phosphodiesterase 1 Radioligand for Positron Emission Tomography” (ACS Omega, 2024).

Protein sequences, listed by entry. Tags and fused reporters are not part of them.
UniProt Q01064, whole entry: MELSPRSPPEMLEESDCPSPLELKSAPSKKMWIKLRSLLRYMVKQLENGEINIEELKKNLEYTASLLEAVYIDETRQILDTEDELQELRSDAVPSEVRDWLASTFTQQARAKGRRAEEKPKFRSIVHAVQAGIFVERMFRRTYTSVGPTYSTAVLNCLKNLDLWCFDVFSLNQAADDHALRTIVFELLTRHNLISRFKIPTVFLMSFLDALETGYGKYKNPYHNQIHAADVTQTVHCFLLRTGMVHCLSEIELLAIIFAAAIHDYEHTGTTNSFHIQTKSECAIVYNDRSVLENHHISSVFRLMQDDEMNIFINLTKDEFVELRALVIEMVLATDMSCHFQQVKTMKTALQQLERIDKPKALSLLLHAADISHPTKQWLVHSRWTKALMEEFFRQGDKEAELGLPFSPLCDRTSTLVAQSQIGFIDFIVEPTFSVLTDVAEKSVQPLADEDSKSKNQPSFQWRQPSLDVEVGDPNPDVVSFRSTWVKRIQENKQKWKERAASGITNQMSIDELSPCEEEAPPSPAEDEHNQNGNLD

Assays:
[1] = test system: PDE1B; experiment: In vitro autoradiography with [11C]PF-04822163 on rat brain sections, blocking; settings: blocker 10 μM, [11C]PF-04822163 autoradiography
[2] = molecular target: PDE1B (Homo sapiens, UniProt Q01064); experiment: PDE1B inhibition; type: biochemical; settings: read-out: PDE1B IC50

Compound	decrease in radioactivity signal in PDE1B-rich regions [1]	IC50 [2]
COc1ccc2c(N[C@@H](C)Cc3cc(C)[nH]n3)ncnc2c1OC	24–51%	
COc1ccc2c([C@@H]3CCc4ccc(Cl)cc43)ncnc2c1OC		458 nM
